Sequences of proteins named here, by UniProt entry; tags and fusion partners are left off.
UniProt P50406, whole entry: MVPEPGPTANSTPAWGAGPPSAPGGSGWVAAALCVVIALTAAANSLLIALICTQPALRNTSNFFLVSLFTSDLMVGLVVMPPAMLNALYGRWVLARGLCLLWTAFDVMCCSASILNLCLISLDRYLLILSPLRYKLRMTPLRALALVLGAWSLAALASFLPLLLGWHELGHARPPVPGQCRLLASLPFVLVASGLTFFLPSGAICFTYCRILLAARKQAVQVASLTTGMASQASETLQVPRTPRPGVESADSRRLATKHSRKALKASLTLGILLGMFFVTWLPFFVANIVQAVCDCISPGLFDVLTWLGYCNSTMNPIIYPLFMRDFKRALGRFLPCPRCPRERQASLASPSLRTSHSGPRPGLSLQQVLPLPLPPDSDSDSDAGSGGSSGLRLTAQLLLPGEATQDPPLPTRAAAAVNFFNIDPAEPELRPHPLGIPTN

According to patent US8575186B2, “Epiminocycloalkyl[b] indole derivatives as serotonin sub-type 6 (5-HT6) modulators and uses thereof” (Albany Molecular Research, Inc., priority 2009, dated 2013):

target: human 5-HT6 receptor (Homo sapiens (Human), UniProt P50406); test: radioligand binding assay (SPA format), [N-methyl-3H]-LSD; conditions: read-out: human 5HT6 Ki

Row | Compound | Ki
1 | COc1cc(S(=O)(=O)c2cncc(Cl)c2)cc2c3c(n(C)c12)CC1CCC3N1 (stereo not drawn) [Example 144] | 21 nM
2 | COc1cc(S(=O)(=O)c2cccc(O)c2)cc2c3c(n(C)c12)CC1CCC3N1 (stereo not drawn) [Example 146] | 2.3 nM
3 | Cn1c2c(c3cc(S(=O)(=O)c4ccccc4)cc(OCCO)c31)C1CCC(C2)N1 (stereo not drawn) [Example 151] | 44 nM
4 | COCCOc1cc(S(=O)(=O)c2ccccc2)cc2c3c(n(C)c12)CC1CCC3N1 (stereo not drawn) [Example 152] | 9.2 nM
5 | Cn1c2c(c3cc(S(=O)(=O)c4cccc(C(F)(F)F)c4)ccc31)C1CCC(C2)N1 (stereo not drawn) [Example 159] | 1.4 nM
6 | Cn1c2c(c3cc(S(=O)(=O)c4cccc(C(F)(F)F)c4)ccc31)C1CCC(C2)N1 (stereo not drawn) [Example 160] | 4.5 nM
7 | Cn1c2c(c3cc(S(=O)(=O)c4ccc5[nH]ccc5c4)ccc31)C1CCC(C2)N1 (stereo not drawn) [Example 161] | 0.37 nM
8 | Cn1c2c(c3cc(S(=O)(=O)c4ccc5[nH]ccc5c4)ccc31)C1CCC(C2)N1 (stereo not drawn) [Example 162] | 0.28 nM
9 | Cn1c2c(c3cc(S(=O)(=O)c4c[nH]c5ccccc45)ccc31)C1CCC(C2)N1 (stereo not drawn) [Example 163] | 1.2 nM
10 | Cn1c2c(c3cc(S(=O)(=O)c4c[nH]c5ccccc45)ccc31)C1CCC(C2)N1 (stereo not drawn) [Example 164] | 0.74 nM
11 | Cn1c2c(c3cc(S(=O)(=O)c4csc5ccccc45)ccc31)C1CCC(C2)N1 (stereo not drawn) [Example 171] | 0.36 nM
12 | CCn1ccc2cc(S(=O)(=O)c3ccc4c(c3)c3c(n4C)CC4CCC3N4)ccc21 (stereo not drawn) [Example 173] | 15 nM
13 | CCn1ccc2cc(S(=O)(=O)c3ccc4c(c3)c3c(n4C)CC4CCC3N4)ccc21 (stereo not drawn) [Example 174] | 5.1 nM
14 | Cn1c2c(c3cc(S(=O)(=O)c4ccc(C(F)(F)F)cc4)ccc31)C1CCC(C2)N1 (stereo not drawn) [Example 176] | 46 nM
15 | Cn1c2c(c3cc(S(=O)(=O)c4cncc5ccccc45)ccc31)C1CCC(C2)N1 (stereo not drawn) [Example 179] | 3.7 nM
16 | Cn1c2c(c3cc(S(=O)(=O)n4ccc5ccc(F)cc54)ccc31)C1CCC(C2)N1 (stereo not drawn) [Example 187] | 1.1 nM
17 | Cn1c2c(c3cc(S(=O)(=O)n4ccc5ccccc54)ccc31)C1CCC(C2)N1 (stereo not drawn) [Example 189] | 1.2 nM
18 | Cn1c2c(c3cc(S(=O)(=O)n4ccc5ccccc54)ccc31)C1CCC(C2)N1 (stereo not drawn) [Example 190] | 0.68 nM
19 | Cn1c2c(c3cc(S(=O)(=O)n4ccc5cc(F)ccc54)ccc31)C1CCC(C2)N1 (stereo not drawn) [Example 191] | 1.9 nM
20 | Cn1c2c(c3cc(S(=O)(=O)n4ccc5cc(F)ccc54)ccc31)C1CCC(C2)N1 (stereo not drawn) [Example 192] | 1.1 nM
21 | Cn1c2c(c3cc(S(=O)(=O)c4ccccc4)cc(O)c31)C1CCC(C2)N1 (stereo not drawn) [Example 203] | 2.9 nM

Row | Compound | Ki
22 | Cn1c2c(c3cc(S(=O)(=O)c4ccccc4)cc(O)c31)C1CCC(C2)N1 (stereo not drawn) [Example 204] | 4.8 nM
23 | Cn1c2c(c3cc(S(=O)(=O)c4cccc(F)c4)cc(O)c31)C1CCC(C2)N1 (stereo not drawn) [Example 205] | 1.8 nM
24 | Cn1c2c(c3cc(S(=O)(=O)c4cccc(F)c4)cc(O)c31)C1CCC(C2)N1 (stereo not drawn) [Example 206] | 1.6 nM
25 | Cn1c2c(c3cc(S(=O)(=O)c4cccc(Cl)c4)cc(O)c31)C1CCC(C2)N1 (stereo not drawn) [Example 207] | 0.91 nM
26 | Cn1c2c(c3cc(S(=O)(=O)c4cccc(Cl)c4)cc(O)c31)C1CCC(C2)N1 (stereo not drawn) [Example 208] | 0.69 nM
27 | COc1cc(S(=O)(=O)c2ccccc2)cc2c3c(n(C)c12)CC1CCC3N1 (stereo not drawn) [Example 212] | 0.57 nM
28 | COc1cc(S(=O)(=O)c2ccccc2)cc2c3c(n(C)c12)CC1CCC3N1 (stereo not drawn) [Example 213] | 4.8 nM
29 | COc1cc(S(=O)(=O)c2ccccc2F)cc2c3c(n(C)c12)CC1CCC3N1 (stereo not drawn) [Example 217] | 4.7 nM
30 | COc1cc(S(=O)(=O)c2ccccc2F)cc2c3c(n(C)c12)CC1CCC3N1 (stereo not drawn) [Example 218] | 0.46 nM
31 | COc1cc(S(=O)(=O)c2cccc(Cl)c2)cc2c3c(n(C)c12)CC1CCC3N1 (stereo not drawn) [Example 219] | 1.7 nM
32 | COc1cc(S(=O)(=O)c2cccc(Cl)c2)cc2c3c(n(C)c12)CC1CCC3N1 (stereo not drawn) [Example 220] | 0.5 nM
33 | COc1cc(S(=O)(=O)c2ccccc2)cc2c3c(n(C)c12)CC1CCC3N1C (stereo not drawn) [Example 227] | 0.68 nM
34 | Cc1cc(S(=O)(=O)n2ccc3ccccc32)cc2c3c(n(C)c12)CC1CCC3N1 (stereo not drawn) [Example 228] | 0.96 nM
35 | Cc1cc(S(=O)(=O)n2ccc3ccccc32)cc2c3c(n(C)c12)CC1CCC3N1 (stereo not drawn) [Example 229] | 1.8 nM
36 | COc1cc(S(=O)(=O)n2cc(C)c3ccccc32)cc2c3c(n(C)c12)CC1CCC3N1 (stereo not drawn) [Example 230] | 1.3 nM
37 | COc1cc(S(=O)(=O)n2cc(C)c3ccccc32)cc2c3c(n(C)c12)CC1CCC3N1 (stereo not drawn) [Example 231] | 0.31 nM
38 | COCCOc1cc(S(=O)(=O)c2ccccc2)cc2c3c(n(C)c12)CC1CCC3N1 (stereo not drawn) [Example 236] | 18 nM
39 | COCCOc1cc(S(=O)(=O)c2ccccc2)cc2c3c(n(C)c12)CC1CCC3N1 (stereo not drawn) [Example 237] | 7.1 nM
40 | COc1cc(S(=O)(=O)n2ccc3ccc(F)cc32)cc2c3c(n(C)c12)CC1CCC3N1 (stereo not drawn) [Example 238] | 0.85 nM
41 | COc1cc(S(=O)(=O)n2ccc3ccc(F)cc32)cc2c3c(n(C)c12)CC1CCC3N1 (stereo not drawn) [Example 239] | 0.43 nM

same assay, conditions: read-out: human 5HT6 Ki; human 5-HT6 receptor membranes, 10 nM [3H]-LSD

Row | Compound | Ki
42 | Cn1c2c(c3cc(S(=O)(=O)c4ccc(C(F)(F)F)cc4)ccc31)C1CCC(C2)N1 (stereo not drawn) [Example 175] | 151 nM
